The nature of the test: Linear Polarisation Resistance (LPR) Test, Example 30, synthetic brine composition 1 or 2. To be noted: dose 40 ppm of product, one addition, time 19.9-20.1 hr, 60° C., constant CO2 sparge.

On to “dodecenyl succinic acid mono triethanolamine salt”, for which the Corrosion protection is reported as 99% and the Corrosion rate was 0.03 mmpy.

The record behind these values is patent US20250109343A1, “CORROSION INHIBITOR” (INNOSPEC LIMITED, priority 2022, published 2025).
